Experimental data as given in ChEMBL document CHEMBL4350952, “Evolution of PI3Kγ and δ Inhibitors for Inflammatory and Autoimmune Diseases” (J Med Chem, 2019).

Organism: Homo sapiens
Assay: Selectivity ratio of IC50 for N-terminal His6-tagged recombiant human full length p120gamma IC50 for N-terminal His6-tagged recombinant full length human p110delta/untagged recombinant full length human p85alpha

Ratio IC50: 1.3
Compound: Cc1nc(Nc2cccc(N3CCCC3=O)n2)sc1-c1cc2c(c(S(C)(=O)=O)c1)C(=O)N([C@@H](C)C1CC1)C2
